# Only a part is listed here, and it is no random draw. Results filed as inconclusive are left out. Active and inactive are the calls of the source. Calls come from the whole dose curve; as a rule, active = well fitted activation curve with a large enough effect in the repeat runs; inconclusive = weak or mixed curves; inactive = no such curve, though single readings can be large or run the other way.
# By UniProt entry, the sequences of proteins in these tests, tags left out.
# UniProt Q9R1A7, whole entry: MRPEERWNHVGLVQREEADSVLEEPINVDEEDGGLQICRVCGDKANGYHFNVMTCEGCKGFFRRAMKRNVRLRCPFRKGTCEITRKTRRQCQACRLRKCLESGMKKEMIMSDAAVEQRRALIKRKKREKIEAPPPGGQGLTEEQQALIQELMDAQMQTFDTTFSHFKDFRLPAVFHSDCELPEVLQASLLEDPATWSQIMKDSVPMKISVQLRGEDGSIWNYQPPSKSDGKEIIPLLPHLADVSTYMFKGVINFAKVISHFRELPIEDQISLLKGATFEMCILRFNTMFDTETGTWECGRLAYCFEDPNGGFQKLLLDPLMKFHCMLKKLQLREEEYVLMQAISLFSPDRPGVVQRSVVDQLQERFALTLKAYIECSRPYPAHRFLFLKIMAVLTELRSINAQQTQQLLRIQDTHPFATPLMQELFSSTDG
# Molecular target: Nuclear receptor subfamily 1 group I member 2 (Rattus norvegicus) (UniProt Q9R1A7)
# Test: Rat pregnane X receptor (rPXR) activation by small molecules, qHTS assay; note: nearly all actives have a fitted effect of over 20% in size
# Details: rPXR luciferase reporter cells, One-Glo luminescence, 24 h; hits give high values
# Description: National Center for Advancing Translational Sciences [NCATS] NIH Chemical Genomics Center [NCGC] U.S. Environmental Protection Agency [EPA] National Institutes of Environmental Health Sciences [NIEHS] National Toxicology Program [NTP] Assay overview: The Pregnane X receptor (PXR), a ligand activated nuclear receptor plays a critical role in the regulation of genes involved in drug metabolism and transporters. PXR binds xenobiotics and when compounds interact with PXR produces enhanced expression of CYP3A genes. In humans PXR activation and CYP3A4 induction can be problematic due to their interactions with co-medicated drugs and decrease their efficacy or increase their own metabolism. However, there are known species-specific differences with regard to PXR activation that should be taken into account when animal PXR data are extrapolated to humans. A cell based rat PXR (rPXR) assay (developed by Puracyp, Inc., CA) was used to assess the activation of rPXR.
# Assay Protocol Summary: rPXR cells were dispensed at 2,000 per well in 5uL of assay medium into white, solid-bottom 1536-well plates using a Multidrop Combi dispenser (Thermo Scientific). The assay plates were incubated at 37 C for 5hr before transferring 23 nL of test compounds dissolved in DMSO and positive control via Pintool station (Wako). The assay plates were incubated at 37 C for 24 hr. Then 5ul One-Glo assay reagent (Promega) was added to each plate by a Flying Reagent Dispenser (FRD, Aurora Discovery) and following 30 min incubation at room temperature, luciferase activity was quantified on a ViewLux plate reader (Perkin Elmer).
# % is set by controls: 0 for no effect and ±100 for the full control effect.
row,Compound,max activation
1,C/C1=C2N=C(/C=C3N=C(/C(C)=C4\[N-][C@@](C)([C@@H]5N=C1[C@](C)(CCC(=O)NC[C@@H](C)OP(=O)([O-])O[C@H]1[C@@H](O)[C@@H](n6cnc7cc(C)c(C)cc76)O[C@@H]1CO)[C@H]5CC(N)=O)[C@@](C)(CC(N)=O)[C@@H]4CCC(N)=O)[C@@](C)(CC(N)=O)[C@@H]\3CCC(N)=O)C(C)(C)[C@@H]/2CCC(N)=O.[C-]#N.[Co+3],inactive: -1.1%
2,CC(C)OP(=O)(F)OC(C)C,inactive: -0.54%
3,OCCSCCO,inactive: -1.61%
4,O=[N+]([O-])[O-].[NH4+],inactive: -2.83%
5,CN(C)CCS,inactive: -2.98%
6,O=[N+]([O-])c1cccc([N+](=O)[O-])c1,inactive: -5.04%
7,O=[N+]([O-])OCC(CO[N+](=O)[O-])(CO[N+](=O)[O-])CO[N+](=O)[O-],inactive: -0.548%
